One assay deals with T1, CRF1R (Homo sapiens, UniProt P34998).
T1 sequence (P34998 24-415): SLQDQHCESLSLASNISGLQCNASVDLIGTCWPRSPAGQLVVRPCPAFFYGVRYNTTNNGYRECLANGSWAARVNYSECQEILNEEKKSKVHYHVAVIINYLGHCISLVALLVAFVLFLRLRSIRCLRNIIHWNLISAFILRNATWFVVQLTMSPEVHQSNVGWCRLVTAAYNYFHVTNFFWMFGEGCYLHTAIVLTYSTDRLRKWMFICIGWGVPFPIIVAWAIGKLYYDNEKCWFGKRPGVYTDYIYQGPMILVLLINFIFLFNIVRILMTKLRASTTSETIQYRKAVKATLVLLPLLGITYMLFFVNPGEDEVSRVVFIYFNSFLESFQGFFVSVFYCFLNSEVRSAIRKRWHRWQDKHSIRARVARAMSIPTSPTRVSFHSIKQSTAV
Kind of assay: CRF1R agonist activation (EC50 / Emax), called comparative CRF binding. It is filed as cell-based. The following applies: for Emax: read-out: CRF1R Emax. Summed up: (§1)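 Read-out is Gαs-driven cAMP induction, quantified directly in lysates or through CRE-reporter gene expression, after treating CRF1R- or CRF2R-expressing cells with peptide. Vehicle-treated cells serve as the comparison.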

In another assay the target is T2, CRF2R (Homo sapiens, UniProt Q13324).
T2 sequence (Q13324 1-411): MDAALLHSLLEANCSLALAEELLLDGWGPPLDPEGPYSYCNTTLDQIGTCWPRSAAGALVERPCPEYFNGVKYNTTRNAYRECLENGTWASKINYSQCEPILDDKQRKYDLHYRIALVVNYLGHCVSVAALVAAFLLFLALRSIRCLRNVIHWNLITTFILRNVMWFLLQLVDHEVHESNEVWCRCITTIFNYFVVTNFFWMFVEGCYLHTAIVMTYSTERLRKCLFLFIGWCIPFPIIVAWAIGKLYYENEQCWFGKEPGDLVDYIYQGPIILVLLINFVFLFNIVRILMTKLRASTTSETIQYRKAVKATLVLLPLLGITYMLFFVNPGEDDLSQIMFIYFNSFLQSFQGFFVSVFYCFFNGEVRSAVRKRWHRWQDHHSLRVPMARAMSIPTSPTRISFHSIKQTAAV
Nature of the assay: CRF2R agonist activation (EC50 / Emax), called comparative CRF binding. It counts as cell-based. The following applies: for Emax: read-out: CRF2R Emax. Summed up:
as §1

In general, Emax refers to the greatest response seen or fitted, relative to the assay's reference. In general, EC50 refers to the midpoint of the concentration-response curve.

For `CC[C@H](C)[C@H](NC(=O)[C@@H](NC(=O)[C@H](CC(=O)O)NC(=O)[C@H](CC(C)C)NC(=O)[C@H](CC(C)C)NC(=O)[C@H](CC(C)C)NC(=O)[C@H](CCCNC(=N)N)NC(=O)[C@H](CC(N)=O)NC(=O)[C@H](CC(N)=O)NC(=O)[C@H](C)NC(=O)[C@H](C)NC(=O)[C@H](CCC(N)=O)NC(=O)[C@H](CCC(N)=O)NC(=O)[C@H](CCCCN)NC(=O)[C@H](CCC(=O)O)NC(=O)[C@H](CCCCN)NC(=O)[C@H](CCC(=O)O)NC(=O)[C@H](CCC(N)=O)NC(=O)[C@H](CCCCN)NC(=O)[C@H](CCC(=O)O)NC(=O)[C@@H](NC(=O)[C@H](CCC(=O)O)NC(=O)[C@@H](NC(=O)[C@H](CCSC)NC(=O)[C@H](CCCCN)NC(=O)[C@H](CCCNC(=N)N)NC(=O)[C@H](CC(C)C)NC(=O)[C@H](CC(C)C)NC(=O)[C@H](C)NC(=O)[C@H](CC(C)C)NC(=O)[C@@H]1CCCN1C(=O)[C@H](CC(C)C)NC(=O)[C@H](CC(=O)O)NC(=O)[C@@H](NC(=O)[C@H](CO)NC(=O)[C@@H](NC(=O)[C@@H]1CCCN1C(=O)[C@@H]1CCCN1C(=O)CNC(=O)[C@@H]1CCC(=O)N1)[C@@H](C)CC)[C@@H](C)CC)[C@@H](C)CC)[C@@H](C)CC)[C@@H](C)O)C(N)=O` [compound 308], the Emax at CRF1R is 100%; on CRF2R it was 72.8%.
For `CC[C@H](C)[C@H](NC(=O)[C@@H](NC(=O)[C@H](CC(=O)O)NC(=O)[C@H](CC(C)C)NC(=O)[C@H](CC(C)C)NC(=O)[C@H](CC(C)C)NC(=O)[C@H](CCCNC(=N)N)NC(=O)[C@H](CC(N)=O)NC(=O)[C@H](CC(N)=O)NC(=O)[C@H](C)NC(=O)[C@H](C)NC(=O)[C@H](CCC(N)=O)NC(=O)[C@H](CCC(N)=O)NC(=O)[C@H](CCCCN)NC(=O)[C@H](CCC(=O)O)NC(=O)[C@H](CCCCN)NC(=O)[C@H](CCC(=O)O)NC(=O)[C@H](CCC(N)=O)NC(=O)[C@H](CCCCN)NC(=O)[C@H](CCC(=O)O)NC(=O)[C@@H](NC(=O)[C@H](CCC(=O)O)NC(=O)[C@@H](NC(=O)[C@H](CCSC)NC(=O)[C@H](CCCCN)NC(=O)[C@H](CCCNC(=N)N)NC(=O)[C@H](CC(C)C)NC(=O)[C@H](CC(C)C)NC(=O)[C@@H]1CCCN1C(=O)[C@@H](NC(=O)[C@@H]1CCCN1C(=O)[C@H](CC(C)C)NC(=O)[C@H](CC(=O)O)NC(=O)[C@@H](NC(=O)[C@H](CO)NC(=O)[C@@H](NC(=O)[C@@H]1CCCN1C(=O)[C@@H]1CCCN1C(=O)CNC(=O)[C@@H]1CCC(=O)N1)[C@@H](C)CC)[C@@H](C)CC)[C@@H](C)CC)[C@@H](C)CC)[C@@H](C)CC)[C@@H](C)O)C(N)=O` [compound 26], the EC50 at CRF1R (CRF1R EC50) is above 1000 nM; at CRF2R, 91.8 nM. Further, the Emax on CRF1R turned out to be 16%; at CRF2R it was 86%.
For `CC[C@H](C)[C@H](NC(=O)[C@H](CCCNC(=N)N)NC(=O)[C@H](C)NC(=O)[C@H](CC(N)=O)NC(=O)[C@@H](NC(=O)[C@@H](NC(=O)[C@H](C)NC(=O)[C@H](CCC(N)=O)NC(=O)[C@H](CCC(N)=O)NC(=O)[C@H](CCCCN)NC(=O)[C@H](CCC(=O)O)NC(=O)[C@H](CCCCN)NC(=O)[C@H](CCC(=O)O)NC(=O)[C@H](CCC(N)=O)NC(=O)[C@H](CCCCN)NC(=O)[C@H](CCC(=O)O)NC(=O)[C@@H](NC(=O)[C@H](CCC(=O)O)NC(=O)[C@@H](NC(=O)[C@H](CCSC)NC(=O)[C@H](CCCCN)NC(=O)[C@H](CCCNC(=N)N)NC(=O)[C@H](CC(C)C)NC(=O)[C@H](CC(C)C)NC(=O)[C@H](CCC(=O)O)NC(=O)[C@H](CC(C)C)NC(=O)[C@H](CO)NC(=O)[C@H](CC(C)C)NC(=O)[C@H](CC(=O)O)NC(=O)[C@@H](NC(=O)[C@H](CO)NC(=O)[C@@H](NC(=O)[C@@H]1CCCN1C(=O)[C@@H]1CCCN1C(=O)CNC(=O)[C@@H]1CCC(=O)N1)[C@@H](C)CC)[C@@H](C)CC)[C@@H](C)CC)[C@@H](C)CC)[C@@H](C)O)[C@@H](C)O)C(=O)N[C@@H](CC(C)C)C(=O)N[C@@H](C)C(=O)N[C@@H](CCCNC(=N)N)C(=O)N[C@H](C(N)=O)C(C)C` [compound 142], the maximum response (Emax) on CRF1R is 85.3%; at CRF2R, 77%.
For `CC[C@H](C)[C@H](NC(=O)[C@@H](NC(=O)[C@H](C)NC(=O)[C@H](CC(C)C)NC(=O)[C@H](CC(C)C)NC(=O)[C@H](CC(C)C)NC(=O)[C@H](C)NC(=O)[C@H](CC(N)=O)NC(=O)[C@H](CC(N)=O)NC(=O)[C@H](C)NC(=O)[C@H](C)NC(=O)[C@H](CCC(N)=O)NC(=O)[C@H](CCC(N)=O)NC(=O)[C@H](CCCCN)NC(=O)[C@H](CCC(=O)O)NC(=O)[C@H](CCCCN)NC(=O)[C@H](CCC(=O)O)NC(=O)[C@H](CCC(N)=O)NC(=O)[C@H](CCCCN)NC(=O)[C@H](CCC(=O)O)NC(=O)[C@@H](NC(=O)[C@H](CCC(=O)O)NC(=O)[C@@H](NC(=O)[C@H](CC(C)C)NC(=O)[C@H](CC(C)C)NC(=O)[C@H](CCCNC(=N)N)NC(=O)[C@H](CC(C)C)NC(=O)[C@H](CC(C)C)NC(=O)[C@H](CCC(N)=O)NC(=O)[C@H](Cc1ccccc1)NC(=O)[C@@H]1CCCN1C(=O)[C@H](CC(C)C)NC(=O)[C@H](CC(=O)O)NC(=O)[C@@H](NC(=O)[C@H](CO)NC(=O)[C@@H](NC(=O)[C@@H]1CCCN1C(=O)[C@@H]1CCCN1C(=O)CNC(=O)[C@@H]1CCC(=O)N1)[C@@H](C)CC)[C@@H](C)CC)[C@@H](C)CC)[C@@H](C)CC)[C@@H](C)O)C(N)=O` [compound 360], the Emax was found to be 100% on CRF1R and 93% on CRF2R.
For `CC[C@H](C)[C@H](NC(=O)[C@H](Cc1c[nH]cn1)NC(=O)[C@H](C)NC(=O)[C@H](CC(C)C)NC(=O)[C@H](CC(C)C)NC(=O)[C@H](Cc1c[nH]cn1)NC(=O)[C@H](C)NC(=O)[C@H](CC(N)=O)NC(=O)[C@H](CC(N)=O)NC(=O)[C@H](C)NC(=O)[C@H](C)NC(=O)[C@H](CCC(N)=O)NC(=O)[C@H](CCC(N)=O)NC(=O)[C@H](CCCCN)NC(=O)[C@H](CCC(=O)O)NC(=O)[C@H](CCCCN)NC(=O)[C@H](CCC(=O)O)NC(=O)[C@H](CCC(N)=O)NC(=O)[C@H](CCCCN)NC(=O)[C@H](CCC(=O)O)NC(=O)[C@@H](NC(=O)[C@H](CCC(=O)O)NC(=O)[C@@H](NC(=O)[C@@H](NC(=O)[C@H](CCCCN)NC(=O)[C@H](CCCNC(=N)N)NC(=O)[C@H](CC(C)C)NC(=O)[C@H](CC(C)C)NC(=O)[C@H](CCC(N)=O)NC(=O)[C@H](Cc1ccccc1)NC(=O)[C@@H]1CCCN1C(=O)[C@H](CC(C)C)NC(=O)[C@H](CC(=O)O)NC(=O)[C@@H](NC(=O)[C@H](CO)NC(=O)[C@@H](NC(=O)[C@@H]1CCCN1C(=O)[C@@H]1CCCN1C(=O)CNC(=O)[C@@H]1CCC(=O)N1)[C@@H](C)CC)[C@@H](C)CC)C(C)C)[C@@H](C)CC)[C@@H](C)CC)C(N)=O` [compound 277] the same measures were 39.9% and 100%.
`CC[C@H](C)[C@H](NC(=O)[C@@H](NC(=O)[C@H](CC(=O)O)NC(=O)[C@H](CC(C)C)NC(=O)[C@H](CC(C)C)NC(=O)[C@H](CC(C)C)NC(=O)[C@H](CCCNC(=N)N)NC(=O)[C@H](CC(N)=O)NC(=O)[C@H](CC(N)=O)NC(=O)[C@H](C)NC(=O)[C@H](C)NC(=O)[C@H](CCC(N)=O)NC(=O)[C@H](CCC(N)=O)NC(=O)[C@H](CCCCN)NC(=O)[C@H](CCC(=O)O)NC(=O)[C@H](CCCCN)NC(=O)[C@H](CCC(=O)O)NC(=O)[C@H](CCC(N)=O)NC(=O)[C@H](CCCCN)NC(=O)[C@H](CCC(=O)O)NC(=O)[C@@H](NC(=O)[C@H](CCC(=O)O)NC(=O)[C@@H](NC(=O)[C@H](CCSC)NC(=O)[C@H](CCCCN)NC(=O)[C@H](CCCNC(=N)N)NC(=O)[C@H](CC(C)C)NC(=O)[C@H](CC(C)C)NC(=O)[C@H](Cc1c[nH]c2ccccc12)NC(=O)[C@H](Cc1c[nH]cn1)NC(=O)[C@@H]1CCCN1C(=O)[C@H](CC(C)C)NC(=O)[C@H](CC(=O)O)NC(=O)[C@@H](NC(=O)[C@H](CO)NC(=O)[C@@H](NC(=O)[C@@H]1CCCN1C(=O)[C@@H]1CCCN1C(=O)CNC(=O)[C@@H]1CCC(=O)N1)[C@@H](C)CC)[C@@H](C)CC)[C@@H](C)CC)[C@@H](C)CC)[C@@H](C)O)C(N)=O` [compound 186]: the Emax at CRF1R and at CRF2R was 100% in each case.
